Earlier results on one compound are cited in patent publication US20160169914A1, “KINETICS BIOMARKERS FOR NEURODEGENERATION” (KineMed, Inc., priority 2014, published 2016).

The subject of this data set is SOD1-G93A transgenic mouse. The settings on record: SOD1-G93A TGN mouse; cited from earlier work.

Each structure is given as a SMILES string.

For `Nc1nc2ccc(OC(F)(F)F)cc2s1` [Riluzole], the “delay of disease onset and mortality” value was 20 to 30 days.
